Results as given in patent publication US11723949B2, “Modulators of complement activity” (Ra Pharmaceuticals, Inc., priority 2016, dated 2023).

What was measured:
[1] = system: patients with PNH; settings: UK PNH National Service Reports; cited from earlier work
[2] = system: alternative pathway residual hemolytic activity; assay: Rabbit erythrocyte lysis assay with eculizumab-treated PNH patient plasma/serum; type: cell-based, human; settings: rabbit erythrocytes
Description: Inhibition of complement activity was evaluated by hemolysis of rabbit or PNH patient erythrocytes, and by measuring generation of C5a and C5b-9 by ELISA. […] Inhibition of C5 binding to the alternative pathway (AP) C5 convertase was measured by SPR.
Following incubation, the plate was centrifuged at 1000×g and 100 μL of supernatant was transferred to a new 96-well clear assay plate and the absorbance at 412 nm was measured. Absorbance values were normalized to a plate control of 25% (final concentration) normal human sera (#NHS; Complement Technology Inc., Tyler, Tex.) which was set to 100% hemolysis.

[3] = system: PNH patient erythrocytes; assay: Hemolysis of PNH patient erythrocytes in acidified donor-matched serum; type: cell-based, human; settings: 50% acidified donor-matched serum, 18 hours at 37° C.; two patients
Description: Erythrocytes were collected from PNH patient blood samples by centrifugation at 1000×g for 3 minutes to pellet, and washed 3 times with Alsever's solution. The cell pellet was resuspended 1:2 in GVB^++ buffer (Complement Technology, Tyler, Tex.). Donor-matched normal human sera was acidified to pH 6.4 by addition of HCl. PNH patient erythrocytes (2.5% v/v) were incubated in a clear 96-well assay plate with 50% acidified donor-matched serum and indicated concentrations of compounds for 18 hours at 37° C. Cells were then centrifuged at 1000×g for 3 minutes and 100 μl of the supernatant transferred to a separate clear 96-well assay plate for detection of absorbance at 412 nm.

B1: eculizumab: a C5 inhibitor monoclonal antibody, approved treatment for PNH (Alexion Pharmaceuticals) (antibody, chains of the INN, looked up)
heavy: QVQLVQSGAEVKKPGASVKVSCKASGYIFSNYWIQWVRQAPGQGLEWMGEILPGSGSTEYTENFKDRVTMTRDTSTSTVYMELSSLRSEDTAVYYCARYFFGSSPNWYFDVWGQGTLVTVSSASTKGPSVFPLAPCSRSTSESTAALGCLVKDYFPEPVTVSWNSGALTSGVHTFPAVLQSSGLYSLSSVVTVPSSNFGTQTYTCNVDHKPSNTKVDKTVERKCCVECPPCPAPPVAGPSVFLFPPKPKDTLMISRTPEVTCVVVDVSQEDPEVQFNWYVDGVEVHNAKTKPREEQFNSTYRVVSVLTVLHQDWLNGKEYKCKVSNKGLPSSIEKTISKAKGQPREPQVYTLPPSQEEMTKNQVSLTCLVKGFYPSDIAVEWESNGQPENNYKTTPPVLDSDGSFFLYSRLTVDKSRWQEGNVFSCSVMHEALHNHYTQKSLSLSLG
light: DIQMTQSPSSLSASVGDRVTITCGASENIYGALNWYQQKPGKAPKLLIYGATNLADGVPSRFSGSGSGTDFTLTISSLQPEDFATYYCQNVLNTPLTFGQGTKVEIKRTVAAPSVFIFPPSDEQLKSGTASVVCLLNNFYPREAKVQWKVDNALQSGNSQESVTEQDSKDSTYSLSSTLTLSKADYEKHKVYACEVTHQGLSSPVTKSFNRGEC
[1]
  patients requiring non-standard doses due to breakthrough hemolysis at the standard dose: ~22%
[2]
  effect on residual hemolytic activity: only modest inhibition of hemolysis
[3]
  hemolysis of PNH patient erythrocytes: partially inhibits hemolysis
